Eleven molecules from PubChem BioAssay AID651582 (Sanford-Burnham Center for Chemical Genomics, 2012) can be followed below.

This is a selection; strong and weak results do not stand in their true shares. Some tests of the compounds listed are not included; inactive here does not mean inactive elsewhere. The source made the active and inactive calls.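 The calls were made as follows: active = pattern-corrected inhibition of lipid staining of at least 50% with the nuclear-stain viability signal not falling by more than 50%; inactive = the rest, inconclusive results apart.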

Broadly, the inhibition is the drop in the measured response relative to a control, in per cent.

A short description of the experiment: inhibitors of triacylglycerol accumulation, primary screen, cell-based, uHTS, fluorescence, H9c2 (AID 651582).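 Also: 0% = DMSO wells and 100% = triacsin C control wells.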 The conditions noted are these: H9c2 cells, Nile Red lipid (TAG) fluorescence; at 12.5 µM; stronger effect = higher value; cells loaded with 200 µM oleic acid.
Consider `Cc1ccccc1C(=O)NCC1(N2CCCCC2)CCCCC1`, for which the inhibition is inactive: -10.9%.

On to `C=CCN1CCN(CCOC(=O)C(O)(c2ccccc2)c2ccccc2)CC1`, for which the inhibition is inactive: 2.42%.

`O=C(NCC1(N2CCCCC2)CCCCC1)c1cc([N+](=O)[O-])ccc1Cl`: the inhibition is inactive: -8.16%.

With `CCN(CC)CC(C)C(C)OC(=O)C(O)(c1ccccc1)c1ccccc1` (stereo unspecified), the inhibition is inactive: 1.29%.

In the case of `CC(C)N1C(=O)CC2(CCN(CCOC(=O)C(O)(c3ccccc3)c3ccccc3)CC2)C1=O`, the inhibition is inactive: -1.04%.

Regarding `O=C(OC1CN2CCC1CC2)C(CO)(c1ccccc1)c1ccccc1` (stereo unspecified), the inhibition is inactive: 5.37%.

As to `C=C(C)C#CC(O)(C(=O)OC1CCN(C)CC1)c1ccccc1` (stereo unspecified), the inhibition was inactive: 7.25%.

Turning to `COc1ccc(Br)c(C(=O)NCC2(N3CCCCC3)CCCCC2)c1`, the inhibition was inactive: 4.41%.

Regarding `O=C(OCCN1CCCC1)C(O)(c1ccccc1)c1ccccc1`, the inhibition was inactive: -5.05%.

Consider `CN(C)c1cccc(C(=O)NCC2(N(C)C)CCCCC2)c1`, for which the inhibition was inactive: 3.19%.

As for `COc1cccc(C(=O)NCC2(N3CCCCC3)CCCCC2)c1`, the inhibition was inactive: -7.11%.
